Experimental data reported in US10040781B2, “Tank-binding kinase inhibitor compounds” (Gilead Sciences, Inc., priority 2014, dated 2018).

The chains behind the UniProt entries cited, without tags or fusion partners. Where a name states a change or a piece, a line headed by the entry shows the natural chain unless it says otherwise.
UniProt O60674: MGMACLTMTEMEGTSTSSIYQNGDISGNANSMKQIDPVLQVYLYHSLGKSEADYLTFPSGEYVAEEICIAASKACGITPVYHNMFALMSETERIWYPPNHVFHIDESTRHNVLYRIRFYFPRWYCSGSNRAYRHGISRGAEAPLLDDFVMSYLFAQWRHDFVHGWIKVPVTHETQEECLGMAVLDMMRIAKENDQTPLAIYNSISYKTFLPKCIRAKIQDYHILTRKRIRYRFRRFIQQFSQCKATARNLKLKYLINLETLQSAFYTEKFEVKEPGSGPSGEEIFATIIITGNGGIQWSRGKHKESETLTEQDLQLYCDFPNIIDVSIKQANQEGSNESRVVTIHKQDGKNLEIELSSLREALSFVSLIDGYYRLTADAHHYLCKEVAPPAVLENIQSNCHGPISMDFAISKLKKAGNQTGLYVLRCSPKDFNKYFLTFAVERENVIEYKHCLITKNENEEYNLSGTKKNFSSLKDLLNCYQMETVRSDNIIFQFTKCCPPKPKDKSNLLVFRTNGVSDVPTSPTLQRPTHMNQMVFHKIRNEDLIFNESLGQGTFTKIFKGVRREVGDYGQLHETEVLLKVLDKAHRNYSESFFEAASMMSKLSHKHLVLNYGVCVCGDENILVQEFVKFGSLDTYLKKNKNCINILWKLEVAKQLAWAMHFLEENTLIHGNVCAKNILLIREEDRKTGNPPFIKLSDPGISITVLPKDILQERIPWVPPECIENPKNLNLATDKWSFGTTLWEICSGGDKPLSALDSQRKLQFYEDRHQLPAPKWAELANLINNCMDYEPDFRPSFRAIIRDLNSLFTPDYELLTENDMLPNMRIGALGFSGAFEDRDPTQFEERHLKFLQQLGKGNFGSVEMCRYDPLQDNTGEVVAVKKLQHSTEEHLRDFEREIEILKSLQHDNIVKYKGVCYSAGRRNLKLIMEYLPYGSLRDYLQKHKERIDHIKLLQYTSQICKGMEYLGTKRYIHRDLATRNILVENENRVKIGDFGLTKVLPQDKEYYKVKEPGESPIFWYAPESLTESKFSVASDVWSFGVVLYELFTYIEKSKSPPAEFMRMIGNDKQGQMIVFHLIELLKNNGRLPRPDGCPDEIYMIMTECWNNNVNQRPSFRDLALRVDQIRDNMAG
UniProt Q14164: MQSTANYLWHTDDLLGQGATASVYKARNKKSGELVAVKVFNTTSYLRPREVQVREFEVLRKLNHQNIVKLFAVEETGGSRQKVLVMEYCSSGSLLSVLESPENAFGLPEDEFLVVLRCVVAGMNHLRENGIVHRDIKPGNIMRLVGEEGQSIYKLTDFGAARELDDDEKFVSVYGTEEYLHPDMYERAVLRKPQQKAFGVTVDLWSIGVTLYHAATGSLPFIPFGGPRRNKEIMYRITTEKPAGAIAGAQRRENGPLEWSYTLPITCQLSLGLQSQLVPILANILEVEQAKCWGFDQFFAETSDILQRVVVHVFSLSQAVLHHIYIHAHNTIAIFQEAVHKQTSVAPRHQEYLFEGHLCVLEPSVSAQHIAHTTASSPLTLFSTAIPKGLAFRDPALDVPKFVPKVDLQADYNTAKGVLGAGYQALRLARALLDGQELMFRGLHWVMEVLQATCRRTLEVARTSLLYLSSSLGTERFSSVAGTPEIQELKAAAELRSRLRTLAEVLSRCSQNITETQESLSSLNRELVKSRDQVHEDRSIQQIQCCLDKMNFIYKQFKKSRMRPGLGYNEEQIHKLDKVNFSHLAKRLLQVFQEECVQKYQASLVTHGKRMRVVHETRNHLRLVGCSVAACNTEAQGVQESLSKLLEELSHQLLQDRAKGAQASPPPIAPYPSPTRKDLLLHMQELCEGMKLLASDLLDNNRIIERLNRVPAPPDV
UniProt Q9UHD2: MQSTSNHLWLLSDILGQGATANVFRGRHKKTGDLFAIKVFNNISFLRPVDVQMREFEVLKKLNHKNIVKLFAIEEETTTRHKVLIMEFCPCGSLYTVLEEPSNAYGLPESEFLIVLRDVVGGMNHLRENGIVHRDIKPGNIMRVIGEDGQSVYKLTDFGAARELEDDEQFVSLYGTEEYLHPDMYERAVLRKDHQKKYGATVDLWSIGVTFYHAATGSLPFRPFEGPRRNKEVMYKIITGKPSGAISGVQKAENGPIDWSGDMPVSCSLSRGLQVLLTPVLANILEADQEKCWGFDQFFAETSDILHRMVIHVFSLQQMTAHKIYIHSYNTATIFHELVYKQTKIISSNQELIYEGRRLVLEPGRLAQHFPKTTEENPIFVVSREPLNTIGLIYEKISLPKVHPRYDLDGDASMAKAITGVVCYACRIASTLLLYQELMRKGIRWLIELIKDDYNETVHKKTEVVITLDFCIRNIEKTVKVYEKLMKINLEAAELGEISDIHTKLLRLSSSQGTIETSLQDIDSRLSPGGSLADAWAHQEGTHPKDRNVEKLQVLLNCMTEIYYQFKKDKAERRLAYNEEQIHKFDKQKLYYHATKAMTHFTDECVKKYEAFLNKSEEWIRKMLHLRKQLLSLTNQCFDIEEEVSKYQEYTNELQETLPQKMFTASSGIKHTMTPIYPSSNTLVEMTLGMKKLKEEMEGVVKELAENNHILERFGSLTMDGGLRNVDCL

Key:
hJAK2 = hJAK2 (Homo sapiens (Human), UniProt O60674); assay: hJAK2 LANCE TR-FRET enzymatic assay; type: biochemical; conditions: read-out: JAK2 IC50
IKKε = IKKε (Homo sapiens (Human), UniProt Q14164); assay: IKKε TR-FRET enzymatic assay; type: biochemical; conditions: read-out: IKKe IC50
TBK1 = TBK1 (Homo sapiens (Human), UniProt Q9UHD2); assay: TBK1 TR-FRET enzymatic assay;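 also: phosphorylation of a biotinylated Ser/Thr peptide by purified full-length recombinant TBK1, read by TR-FRET after 240 min at 25 °C, IC50 is the geometric mean of at least four runs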
[1] = TR-FRET, 2×Km ATP, geometric mean of minimum four determinations

SMILES | IC50 (hJAK2) [nM] | IC50 (IKKε) [nM] | IC50 (TBK1) [nM] | IC50 (IKKε; [1]) [nM]
C[C@H]1C[C@H](Oc2ccc(-c3ncnc(Nc4ccc(N5CCN(C6COC6)CC5)cc4)n3)cc2C#N)[C@H](F)CN1C(=O)[C@@H]1CCC(=O)N1 [Example 416, 2-(((2S,4S,5R)-5-fluoro-2-methyl-1-((S)-5-oxopyrrolidine-2-carbonyl)piperidin-4-yl)oxy)-5-(4-((4-(4-(oxetan-3-yl)piperazin-1-yl)phenyl)amino)-1,3,5-triazin-2-yl)benzonitrile] | ≥ 1000 | – | – | –
N#Cc1cc(-c2ncnc(Nc3ccc(N4CCN(C5COC5)CC4)cc3)n2)ccc1OC1CCN(C(=O)c2ncc[nH]2)CC1(F)F (centres unmarked) [Example 163, 2-((3,3-difluoro-1-(1H-imidazole-2-carbonyl)piperidin-4-yl)oxy)-5-(4-((4-(4-(oxetan-3-yl)piperazin-1-yl)phenyl)amino)-1,3,5-triazin-2-yl)benzonitrile] | – | 6 | 6 | –
Cc1cc(Nc2ncnc(-c3ccc(O[C@H]4CCN(C(=O)[C@H](O)CO)C[C@H]4F)c(C#N)c3)n2)ccc1N1CCN(C2COC2)CC1 [Example 576, 2-(((3R,4S)-1-((R)-2,3-dihydroxypropanoyl)-3-fluoropiperidin-4-yl)oxy)-5-(4-((3-methyl-4-(4-(oxetan-3-yl)piperazin-1-yl)phenyl)amino)-1,3,5-triazin-2-yl)benzonitrile] | – | – | 2 | 2
N#Cc1cc(-c2ncnc(Nc3ccc(N4CCOCC4)cc3)n2)ccc1NC(=O)[C@@H]1CCCN1 [Example 37, (S)—N-(2-cyano-4-(4-((4-morpholinophenyl)amino)-1,3,5-triazin-2-yl)phenyl)pyrrolidine-2-carboxamide] | 326 | – | – | –
C[C@H](O)C(=O)N1CC[C@H](Oc2ccc(-c3ncnc(Nc4ccc([C@@H]5C(=O)N(C)CCN5C)cc4)n3)cc2C#N)[C@H](F)C1 [Example 518, 5-(4-((4-((R)-1,4-dimethyl-3-oxopiperazin-2-yl)phenyl)amino)-1,3,5-triazin-2-yl)-2-(((3R,4S)-3-fluoro-1-((S)-2-hydroxypropanoyl)piperidin-4-yl)oxy)benzonitrile] | – | – | 3 | 3

Further lines, with some results ahead:

IC50 (hJAK2) [nM] | IC50 (IKKε) [nM] | IC50 (TBK1) [nM] | SMILES | IC50 (IKKε; [1]) [nM]
≥ 1000 | – | – | C[C@H](O)C(=O)N1CC[C@H](Oc2ccc(-c3ncnc(Nc4ccc(C5CCN(C6COC6)CC5)cc4)n3)cc2C#N)[C@H](F)C1 [Example 311, 2-(((3R,4S)-3-fluoro-1-((S)-2-hydroxypropanoyl)piperidin-4-yl)oxy)-5-(4-((4-(1-(oxetan-3-yl)piperidin-4-yl)phenyl)amino)-1,3,5-triazin-2-yl)benzonitrile] | –
– | ≥ 1000 | 1000 | C[C@H]1CN(C2COC2)CCN1c1ccc(Nc2ncnc(-c3ccc(O[C@H]4CCN(C(=O)[C@@H]5CCC(=O)N5)C[C@H]4F)c(C#N)c3)n2)cc1 [Example 381, 2-(((3R,4S)-3-fluoro-1-((S)-5-oxopyrrolidine-2-carbonyl)piperidin-4-yl)oxy)-5-(4-((4-((S)-2-methyl-4-(oxetan-3-yl)piperazin-1-yl)phenyl)amino)-1,3,5-triazin-2-yl)benzonitrile] | –
– | 7 | 7 | Cc1n[nH]c(C)c1C(=O)N1CC[C@H](Oc2ccc(-c3ncnc(Nc4ccc(N5CCN(C6COC6)CC5)cc4)n3)cc2C#N)[C@H](F)C1 [Example 135, 2-(((3R,4S)-1-(3,5-dimethyl-1H-pyrazole-4-carbonyl)-3-fluoropiperidin-4-yl)oxy)-5-(4-((4-(4-(oxetan-3-yl)piperazin-1-yl)phenyl)amino)-1,3,5-triazin-2-yl)benzonitrile] | –
– | – | 2 | N#Cc1cc(-c2ncnc(Nc3ccc(N4CCN(C5COC5)CC4)cc3)n2)ccc1O[C@H]1CCN(C(=O)c2cnccn2)C[C@H]1F [Example 336, 2-(((3R,4S)-3-fluoro-1-(pyrazine-2-carbonyl)piperidin-4-yl)oxy)-5-(4-((4-(4-(oxetan-3-yl)piperazin-1-yl)phenyl)amino)-1,3,5-triazin-2-yl)benzonitrile] | –

Read-outs that look alike come from different tables or passages of the source.
